Target: T1, VMAT (Rattus norvegicus, UniProt Q01827)
T1 construct: The 1.6 kilobase fragment containing the full coding lesion and the part of the 3′ untranslated lesion of rat VMAT-2 cDNA; expressed in transfected cells; host or cells: primary skin fibroblasts from Fischer 344 rats, retrovirally transduced (LINX vector, PhCMV*-1 promoter, PA317 producer line); PFVMAA cells also express bovine AADC
Experiment: Effect of VMAT inhibitor reserpine on dopamine and DOPAC in PFVMAA cells
Assay type: cell-based
Details: reserpine 3 μM with L-DOPA 1 μM, 2 hours
Protocol: FIG. 2A–FIG. 2D. Dopamine production and storage in genetically modified fibroblast cells from exogenous L-DOPA. Time course of intracellular (FIG. 2A) and extracellular (FIG. 2B) dopamine levels in PFAADC cells (open circle) and PFVMAA cells (solid circle) after 1 μM L-DOPA incubation for various duration (0 to 6 hours). The dopamine (FIG. 2C) and DOPAC (FIG. 2D) levels in PFAADC cells and PFVMAA cells after 2 hour-incubation with 1 μM L-DOPA and 3 μM reserpine (+rsp) or without reserpine (−rsp). The catecholamine levels were measured both in the media (solid bar) and in the cells (open bar). Data represent the mean±SEM (n=3), from a representative set of several experiments. n.d., nondetectable levels. * p<0.01, Newman-Keuls post-hoc analysis.
This is consistent with metabolism of cytoplasmic dopamine by monoamine oxidase (MAO) in PFAADC cells or PFVMAA cells with reserpine. On the other hand, dopamine is protected from the metabolism because it is sequestrated in the vesicles of PFVMAA cells. […] In summary, VMAT-2 not only increases the intracellular storage capacity and reduce metabolism of dopamine, but also increase overall production of dopamine in fibroblasts genetically modified with AADC (see Table 2).

Chains of the proteins cited; added tags and fusions are not shown.
UniProt Q01827, whole entry: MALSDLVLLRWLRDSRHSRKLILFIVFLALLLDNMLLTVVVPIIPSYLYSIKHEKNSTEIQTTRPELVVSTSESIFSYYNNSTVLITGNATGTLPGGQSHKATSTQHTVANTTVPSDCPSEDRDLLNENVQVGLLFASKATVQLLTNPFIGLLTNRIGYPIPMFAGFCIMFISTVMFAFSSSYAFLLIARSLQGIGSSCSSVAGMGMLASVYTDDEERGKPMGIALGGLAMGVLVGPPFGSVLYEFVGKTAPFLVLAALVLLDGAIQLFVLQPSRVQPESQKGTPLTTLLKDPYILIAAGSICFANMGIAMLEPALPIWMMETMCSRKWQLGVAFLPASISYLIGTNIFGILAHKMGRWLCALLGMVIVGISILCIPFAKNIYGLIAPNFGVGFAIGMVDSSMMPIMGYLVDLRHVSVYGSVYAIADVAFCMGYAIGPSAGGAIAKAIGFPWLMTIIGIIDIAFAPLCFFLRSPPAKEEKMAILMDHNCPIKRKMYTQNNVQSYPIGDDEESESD

COC(=O)[C@H]1[C@H]2C[C@@H]3c4[nH]c5cc(OC)ccc5c4CCN3C[C@H]2C[C@@H](OC(=O)c2cc(OC)c(OC)c(OC)c2)[C@@H]1OC [reserpine] was tested, and the “effect on DOPAC levels of PFVMAA cells” value was “increased DOPAC levels to that of PFAADC”, the “effect on extracellular dopamine level of PFVMAA cells” value was “decreased extracellular dopamine level of PFVMAA to the levels comparable to that of PFAADC cells” and the “effect on intracellular dopamine of PFVMAA cells” value was “depleted intracellular dopamine from PFVMAA completely”.

— patent US7115258B2, “Vesicular monoamine transporter gene therapy in parkinson's disease” (priority 1998, dated 2006)
